Target: Brm ATPase-SnAC (636-1331) (Homo sapiens, UniProt P51531)
Assay: BRM ATPase Inhibition Assay (ADP-Glo)
Type: biochemical
Details: 5 nM BRM ATPase-SnAC, 85 μM ATP, 2 nM pCMV-dR8.91 plasmid, 60 min RT
Protocol: BRM ATPase Inhibition Assay
Compound inhibition of ATPase activity of Brm ATPase-SnAC (636-1331) was measured by using the ADP-Glo assay kit from Promega (V6930). 120 nL of compound in 100% DMSO were transferred to a white 384 well microtiter assay plate using an ATS Acoustic Transfer System from EDC Biosystems. All subsequent reagent additions were performed using a MultiFlo FX Multi-Mode Dispenser. Assay buffer was 20 mM HEPES pH 7.5, 1 mM MgCl2, 20 mM KCl, 1 mM DTT, 0.01% BSA, 0.005% Tween 20. 4 μL of 7.5 nM Brm ATPase-SnAC in assay buffer was added to the assay plate and incubated at RT for 5 min with compound. 2 μL of 255 μM ATP and 6 nM pCMV-dR8.91 plasmid in assay buffer was added to assay plate to initiate the reaction. The final concentrations of reagents were 5 nM BRM ATPase-SnAC, 85 μM ATP, and 2 nM pCMV-dR8.91 plasmid. The ATPase reaction was incubated at RT for 60 min. 3 μL of ADP-Glo reagent was added to stop the reaction and was incubated for 30 min at RT. 3 μL of Kinase detection reagent was added to the assay plate which was incubated for 90 min at RT. Plates were read with a 2103 Multilabel Envision reader using ultrasensitive luminescence detection. IC50 values were determined from the average of duplicate data points by non-linear regression analysis of percent inhibition values plotted versus compound concentration. […]

By UniProt entry, the sequences of proteins in these tests, tags left out.
UniProt P51531, whole entry, looked up: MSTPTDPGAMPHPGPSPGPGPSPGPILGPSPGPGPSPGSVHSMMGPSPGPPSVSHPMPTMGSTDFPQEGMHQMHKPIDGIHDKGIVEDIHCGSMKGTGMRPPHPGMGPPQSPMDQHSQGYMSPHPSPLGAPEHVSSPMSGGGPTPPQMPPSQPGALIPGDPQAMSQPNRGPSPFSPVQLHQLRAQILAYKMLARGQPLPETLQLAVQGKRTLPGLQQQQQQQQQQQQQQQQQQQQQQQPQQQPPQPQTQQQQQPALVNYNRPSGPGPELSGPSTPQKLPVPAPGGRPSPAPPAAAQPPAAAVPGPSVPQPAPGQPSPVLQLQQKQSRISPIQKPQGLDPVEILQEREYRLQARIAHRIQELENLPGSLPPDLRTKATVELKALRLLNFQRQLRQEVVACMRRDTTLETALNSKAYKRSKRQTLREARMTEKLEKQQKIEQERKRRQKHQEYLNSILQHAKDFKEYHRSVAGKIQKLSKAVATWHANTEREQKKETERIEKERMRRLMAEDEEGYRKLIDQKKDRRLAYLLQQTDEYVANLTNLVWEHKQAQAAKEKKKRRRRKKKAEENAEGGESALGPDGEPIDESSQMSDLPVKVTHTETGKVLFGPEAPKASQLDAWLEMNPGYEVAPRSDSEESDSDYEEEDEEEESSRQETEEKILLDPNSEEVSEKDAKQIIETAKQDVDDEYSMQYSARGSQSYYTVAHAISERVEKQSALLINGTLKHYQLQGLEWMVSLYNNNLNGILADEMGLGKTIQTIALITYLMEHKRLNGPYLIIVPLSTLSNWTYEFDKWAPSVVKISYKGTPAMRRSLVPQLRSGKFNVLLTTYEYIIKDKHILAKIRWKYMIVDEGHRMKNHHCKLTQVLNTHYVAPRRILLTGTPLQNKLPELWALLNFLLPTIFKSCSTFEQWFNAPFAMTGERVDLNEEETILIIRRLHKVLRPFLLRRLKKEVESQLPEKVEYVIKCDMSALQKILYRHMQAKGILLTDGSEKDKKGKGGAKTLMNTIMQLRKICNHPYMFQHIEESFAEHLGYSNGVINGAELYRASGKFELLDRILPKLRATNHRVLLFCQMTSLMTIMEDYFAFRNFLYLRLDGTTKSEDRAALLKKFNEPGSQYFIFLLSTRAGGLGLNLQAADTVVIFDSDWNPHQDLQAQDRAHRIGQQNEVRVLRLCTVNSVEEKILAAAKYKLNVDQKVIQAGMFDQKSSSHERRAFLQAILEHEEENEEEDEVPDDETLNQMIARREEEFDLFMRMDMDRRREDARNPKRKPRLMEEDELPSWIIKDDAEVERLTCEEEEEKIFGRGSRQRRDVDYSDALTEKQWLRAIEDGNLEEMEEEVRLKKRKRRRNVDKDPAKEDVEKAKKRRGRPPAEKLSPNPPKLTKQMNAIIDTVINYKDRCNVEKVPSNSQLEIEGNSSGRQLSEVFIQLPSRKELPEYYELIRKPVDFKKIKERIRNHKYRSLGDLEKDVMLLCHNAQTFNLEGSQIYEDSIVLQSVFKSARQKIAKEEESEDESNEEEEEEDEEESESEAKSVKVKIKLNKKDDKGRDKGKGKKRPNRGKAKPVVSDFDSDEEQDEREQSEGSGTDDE

With `O=C(Nc1ccnc(Cl)c1)Nc1cc(C(F)(F)F)ns1` [Example 3, 1-(2-chloropyridin-4-yl)-3-(3-(trifluoromethyl)isothiazol-5-yl)urea] the IC50 was 10 nM.
